Among the data in ChEMBL document CHEMBL1140509, “Rynaxypyr: a new insecticidal anthranilic diamide that acts as a potent and selective ryanodine receptor activator” (Bioorg Med Chem Lett, 2007) are Selectivity ratio values, retold here.

Each structure is given as a SMILES string.

Assay type in all cases: cell-based
Experiment [1] relates to PC-12. As to the kind of experiment: Selectivity for Heliothis virescens recombinant ryanodine receptor over rat ryanodine receptor in PC12 cells.
Experiment [2] has as its system C2C12. Nature of the experiment: Selectivity for Drosophila melanogaster ryanodine receptor over mouse ryanodine receptor in C2C12 cells.
Experiment [3] has as its system C2C12. Nature of the experiment: Selectivity for Heliothis virescens recombinant ryanodine receptor over mouse ryanodine receptor in C2C12 cells.
The subject of experiment [4] is PC-12. As to the kind of experiment: Selectivity for Drosophila melanogaster ryanodine receptor over rat ryanodine receptor in PC12 cells.

Regarding `CNC(=O)c1cc(Cl)cc(C)c1NC(=O)c1cc(Br)nn1-c1ncccc1Cl` [CHLORANTRANILIPROLE], the Selectivity ratio in experiment [1] was more than 2000; in experiment [2], 300; in experiment [3] it was 300; in experiment [4] it was more than 2000.
